Reference: US6800633B2, “Pyrrolo[2,3d]pyrimidine compositions and their use” (OSI Pharmaceuticals, Inc., priority 1998, dated 2004)

Biological target: T1, A2a receptor (Homo sapiens, UniProt P29274)
T1 construct: expressed in transfected cells; host or cells: Saccharomyces cerevisiae (CY8342-derived strains with rat Gαs mutants, e.g. CY8362 with GαsE10K)
Assay: Yeast-based A2a receptor assay (antagonist specificity)
Type: cell-based

**Q.** Which “A2a receptor antagonist activity in yeast-based assay” value does the source give for `CCCn1c(=O)c2[nH]c(C3CCCC3)nc2n(CCC)c1=O` here?
**A.** The value was “relatively inert”.
